{"source": "PubChem BioAssay AID588473", "about": "(Sanford-Burnham Center for Chemical Genomics, 2011)", "note": "The entries are a selection whose mix differs from that of the whole data set. Active and inactive are the calls of the source.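 Rule for the calls: active = activation of at least 50%, plus an integration ratio under a set limit after plate pattern correction; inactive = the rest.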", "data": [{"tested_on": "CRF-binding protein / CRF receptor 2 complex (human)", "assay": "agonists of CRF-BP/CRF-R2 complex, primary screen, cell-based, HEK293, calcium dye fluorescence, uHTS (AID 588473);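 note: plate controls were neutral control wells without compound for no effect and CRF at EC100 for full effect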", "conditions": "calcium dye fluorescence (FLIPR), at 13.2 µM, active compounds read high, percent of saturating CRF peptide response", "values": [{"smiles": "O=[As](O)(c1cccs1)c1cccs1", "activation": "inactive: 0.18%"}, {"smiles": "O=P1(Nc2ccc(Br)cn2)COc2ccccc2OC1", "activation": "inactive: -1.76%"}, {"smiles": "NS(=O)(=O)c1cccc(NC(=O)COC(=O)C(O)(c2ccccc2)c2ccccc2)c1", "activation": "inactive: -2.93%"}, {"smiles": "CC1CCC(C(C)C)C(OP(=O)(Nc2ccccn2)c2ccccc2)C1", "note": "(stereo not given)", "activation": "inactive: -0.62%"}, {"smiles": "Cc1ccc(C(=O)OC2CN3CCC2CC3)cc1", "note": "(stereo not given)", "activation": "inactive: 1.54%"}, {"smiles": "Cc1nn(-c2ccccc2)c2c1P(=O)(N1CCOCC1)N(C)C(c1ccccc1)=N2", "note": "(stereo not given)", "activation": "inactive: 0.14%"}, {"smiles": "CN(C)C1(CNC(=O)c2ccc(S(C)(=O)=O)cc2)CCCCC1", "activation": "inactive: -0.68%"}, {"smiles": "CCCC1OP(=O)(Nc2ccccc2)OCC1CC", "note": "(stereo not given)", "activation": "inactive: -0.28%"}, {"smiles": "O=C(/C=C/c1ccccc1)OC1CN2CCC1CC2", "note": "(stereo not given)", "activation": "inactive: 1.56%"}, {"smiles": "COc1ccccc1CNC(=O)COC(=O)C(O)(c1ccccc1)c1ccccc1", "activation": "inactive: -1.18%"}, {"smiles": "CC(C)/C=N\\N=C(\\N)N[N+](=O)[O-]", "activation": "inactive: 3.8%"}, {"smiles": "CN(C(=O)Cc1ccc(Cl)c(Cl)c1)[C@@H]1CCCC[C@H]1N1CCCC1", "activation": "inactive: -2.42%"}, {"smiles": "CC1(CBr)Cn2c(nc3ccccc3c2=O)S1", "note": "(stereo not given)", "activation": "inactive: -0.05%"}, {"smiles": "CCOP(=O)(NC(=NC(C)c1ccccc1)NC(C)c1ccccc1)OCC", "note": "(stereo not given)", "activation": "inactive: -0.78%"}, {"smiles": "O=P1(Nc2ccccn2)COc2ccccc2OC1", "activation": "inactive: 0.67%"}, {"smiles": "CCC1=CC2Cc3nc4ccc(Cl)cc4c(N)c3C(C1)C2", "note": "(stereo not given)", "activation": "inactive: 1.58%"}, {"smiles": "CCOP(=O)(Nc1ccc(C)cn1)OCC", "activation": "inactive: 0.3%"}, {"smiles": "CN(CCCl)Cc1cc(Cl)c(NC2=NCCN2)c(Cl)c1", "activation": "inactive: 1.25%"}, {"smiles": "CC(C)(C)C(=O)NC(Sc1ncccn1)C(Cl)(Cl)Cl", "note": "(stereo not given)", "activation": "inactive: 1.3%"}, {"smiles": "O=P1(N(CCCl)CCCl)NCCC(C(F)(F)F)O1", "note": "(stereo not given)", "activation": "inactive: 24.2%"}, {"smiles": "Clc1n[nH]nc1-c1nn[nH][15n]1", "activation": "inactive: 4.31%"}, {"smiles": "Cc1ccc(NCCc2c([N+](=O)[O-])cc([N+](=O)[O-])cc2[N+](=O)[O-])cc1", "activation": "inactive: -3.83%"}, {"smiles": "Nc1cccc2c([As](=O)(O)O)cccc12", "activation": "inactive: 40.3%"}, {"smiles": "CCCOP(=S)(Nc1nc(N)cc(=O)[nH]1)OCCC", "activation": "inactive: -1.95%"}, {"smiles": "CCOP(=O)(Nc1cccc2ccccc12)OCC", "activation": "inactive: -1.08%"}, {"smiles": "COc1cc(C2NCCC3(OCCO3)C2(C)C)cc(OC)c1OC", "note": "(stereo not given)", "activation": "inactive: 3.54%"}, {"smiles": "O=C(OC1CN2CCC1CC2)c1ccc(Cl)cc1", "note": "(stereo not given)", "activation": "inactive: -0.49%"}, {"smiles": "CS(=O)(=O)c1ccc(Cl)c(NC(=O)COC(=O)C(O)(c2ccccc2)c2ccccc2)c1", "activation": "inactive: -1.73%"}, {"smiles": "O=[As](O)(O)c1cccnc1", "activation": "inactive: 1.2%"}, {"smiles": "COc1cc(C(=O)NCC2(N3CCOCC3)CCCCC2)cc(Cl)c1OC(C)C", "activation": "inactive: -4.06%"}, {"smiles": "Cc1cccc(OCC(=O)OC2CN3CCC2CC3)c1", "note": "(stereo not given)", "activation": "inactive: -0.12%"}, {"smiles": "O=[As](O)(c1cccc(O)c1)c1cccc(O)c1", "activation": "inactive: -0.59%"}, {"smiles": "NC(=O)Nc1ccc([As](=O)(O)O)cc1", "activation": "inactive: -0.72%"}, {"smiles": "CCOP1(=S)c2c(C)nn(CCC#N)c2N=C(c2ccc(F)cc2)N1C", "note": "(stereo not given)", "activation": "inactive: 0.04%"}, {"smiles": "CN(C(=O)Cc1ccccc1)[C@@H]1CC[C@]2(CCCO2)C[C@H]1N1CCCC1", "activation": "inactive: 7.65%"}, {"smiles": "N#CCCN(C(=O)COC(=O)C(O)(c1ccccc1)c1ccccc1)c1ccc(F)cc1", "activation": "inactive: 3.29%"}, {"smiles": "CN(C(=O)Cc1ccc(Cl)c(Cl)c1)[C@H]1CC[C@@]2(CCCO2)C[C@@H]1N1CCCC1", "activation": "inactive: -0.51%"}, {"smiles": "O=[N+]([O-])c1ccc2c(c1)nnn2O", "activation": "inactive: 1.68%"}, {"smiles": "CN(C)C(=O)c1cc([N+](=O)[O-])cc2c1-c1c(cc([N+](=O)[O-])cc1[N+](=O)[O-])C2=O", "activation": "inactive: -6.47%"}, {"smiles": "O=P(Nc1nccs1)(Oc1ccccc1)Oc1ccccc1", "activation": "inactive: 0.61%"}, {"smiles": "O=P(Nc1nccs1)(c1ccccc1)c1nc2ccccc2s1", "note": "(stereo not given)", "activation": "inactive: 1.24%"}, {"smiles": "CCOP1(=S)c2c(C)nn(CCC#N)c2N=C(c2ccccc2F)N1C", "note": "(stereo not given)", "activation": "inactive: -1.01%"}, {"smiles": "CS(=O)(=O)c1cc([N+](=O)[O-])c2no[n+]([O-])c2c1", "activation": "inactive: 27.4%"}, {"smiles": "Nc1ccccc1[As](=O)(O)c1ccccc1", "activation": "inactive: 2.14%"}, {"smiles": "O=C(O)COc1ccc([As](=O)(O)O)cc1[N+](=O)[O-]", "activation": "inactive: 0.77%"}]}]}
